Measurements taken from patent publication US20250123280A1, “LABEL-FREE DETECTION OF PROTEASE ACTIVITY” (OREGON HEALTH & SCIENCE UNIVERSITY, priority 2021, published 2025).

System: Peptide 3 (Fmoc-FKFELAGGAGEEGSGEEE)

Recombinant human cathepsin B
increase in ThT fluorescence after treatment of peptide 3 with cathepsin B: up to a 72 fold increase in ThT fluorescence after treatment of peptide 3 with cathepsin B
